Reference: US20140322278A1, “Modulation of Tissue Transglutaminase Activation in Disease” (The Board of Trustees of the Leland Stanford Junior …, priority 2011, published 2014)

Target: T1, human oxidized TG2 (Homo sapiens, UniProt P21980)
T1 construct: host or cells: Trx from recombinant E. coli
T1 sequence (P21980 1-687): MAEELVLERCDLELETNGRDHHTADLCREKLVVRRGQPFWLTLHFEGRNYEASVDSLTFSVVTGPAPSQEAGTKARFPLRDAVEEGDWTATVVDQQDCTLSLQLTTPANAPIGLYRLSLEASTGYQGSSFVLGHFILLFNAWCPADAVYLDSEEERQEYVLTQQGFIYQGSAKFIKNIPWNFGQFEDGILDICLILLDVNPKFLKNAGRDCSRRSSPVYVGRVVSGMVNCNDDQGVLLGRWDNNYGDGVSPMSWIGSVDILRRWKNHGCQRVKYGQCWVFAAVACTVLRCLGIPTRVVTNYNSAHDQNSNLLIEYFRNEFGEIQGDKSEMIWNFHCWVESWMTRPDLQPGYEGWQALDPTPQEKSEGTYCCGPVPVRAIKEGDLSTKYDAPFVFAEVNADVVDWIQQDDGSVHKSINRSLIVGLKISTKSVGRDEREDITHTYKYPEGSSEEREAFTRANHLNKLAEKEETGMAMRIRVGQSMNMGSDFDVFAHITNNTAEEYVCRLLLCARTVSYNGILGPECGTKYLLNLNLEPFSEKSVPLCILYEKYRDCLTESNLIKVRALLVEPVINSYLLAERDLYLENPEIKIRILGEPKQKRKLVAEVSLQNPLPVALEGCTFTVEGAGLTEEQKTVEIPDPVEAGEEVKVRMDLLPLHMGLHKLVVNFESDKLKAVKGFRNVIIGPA
Experiment: Kinetics of Trx-mediated reduction of oxidized TG2
Assay type: biochemical
Description: To test our hypothesis, we measured the kinetics of Trx-mediated activation of oxidized TG2. Reduced forms of Trx from E. coli and human were prepared by overexpression in and purification from recombinant E. coli. Dithiothreitol (DTT) was used as a reference small molecule reducing agent. […] We therefore quantified the specificity of human Trx for human oxidized TG2 by measuring the Michaelis-Menten parameters for Trx-mediated reduction of oxidized TG2. Insulin, a well-characterized extracellular substrate of Trx, was used as a reference, and human thioredoxin reductase was used as a catalyst to achieve turnover under steady-state conditions. […] Based on these parameters, one can estimate that as little as 2.5 nM Trx in the extracellular matrix should be able to activate 10% of the local oxidized TG2 within 30 min.

second order rate constant for reduction of oxidized TG2, relative to DTT (comparable conditions): at least 100 times
second order rate constant for reduction of oxidized TG2, relative to E. coli Trx (comparable conditions): at least 150 times
B1: recombinant human Trx: reduced human thioredoxin, overexpressed in and purified from recombinant E. coli (protein, UniProt P10599 2-105, looked up)
Thioredoxin: VKQIESKTAFQEALDAAGDKLVVVDFSATWCGPCKMIKPFFHSLSEKYSNVIFLEVDVDDCQDVASECEVKCMPTFQFFKKGQKVGEFSGANKEKLEATINELV
modifications: reduced
notes: reduced human thioredoxin, overexpressed in and purified from recombinant E. coli
Km (human thioredoxin reductase as catalyst, steady state): 21 µM
